Test results reported in ChEMBL document CHEMBL1125495, “Inhibitors of human renin with C-termini derived from amides and esters of alpha-mercaptoalkanoic acids” (J Med Chem, 1992).

Chains of the proteins cited; added tags and fusions are not shown. Lines headed by an entry give the natural chain unless they say otherwise; changes in a name come on top.
UniProt P00797: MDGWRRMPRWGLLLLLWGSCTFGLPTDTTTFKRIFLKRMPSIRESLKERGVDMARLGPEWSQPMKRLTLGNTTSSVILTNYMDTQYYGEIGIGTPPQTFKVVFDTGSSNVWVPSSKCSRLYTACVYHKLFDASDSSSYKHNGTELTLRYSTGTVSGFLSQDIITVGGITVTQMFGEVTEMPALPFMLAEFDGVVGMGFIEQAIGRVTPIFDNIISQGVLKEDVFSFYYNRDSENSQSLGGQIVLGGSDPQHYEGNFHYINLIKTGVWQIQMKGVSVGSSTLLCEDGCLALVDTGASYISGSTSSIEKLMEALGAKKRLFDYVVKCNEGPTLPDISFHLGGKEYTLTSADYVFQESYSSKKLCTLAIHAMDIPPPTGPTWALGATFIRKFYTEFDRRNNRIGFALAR

Biological target: Renin (Homo sapiens, UniProt P00797)
Experiment: Inhibition of human plasma renin
Assay type: cell-free

IC50	SMILES
305 nM	CCOC(=O)[C@@H](CC(C)C)SC[C@H](O)[C@H](CC1CCCCC1)NC(=O)[C@H](Cc1cnc[nH]1)NC(=O)[C@H](Cc1ccccc1)NC(=O)OC(C)(C)C
288 nM	CCOC(=O)[C@H](CC(C)C)SC[C@H](O)[C@H](CC1CCCCC1)NC(=O)[C@H](Cc1cnc[nH]1)NC(=O)[C@H](Cc1ccccc1)NC(=O)OC(C)(C)C
